{"source": "patent US20110171294A1", "about": "“Enzyme composition and application thereof in the treatment of pancreatic insufficiency” (DSM IP ASSETS B.V., priority 2008, published 2011)", "test_system": "Sodium caseinate", "assay": "Casein hydrolysis under simulated stomach conditions (visual impression, di-/tripeptides, free amino acids)", "assay_type": "biochemical", "conditions": "pH 4.0, 37 degrees C.", "description": "To quantify the level of free amino acids in the supernatants of the casein hydrolysates prepared according the procedure outlined in Example 4, the following method was used. By applying the conventional UV detection for monitoring free amino acids after pre-column AccQ-Tag derivatization, a serious interference with small peptides occurs. In 2006, Waters (Milford Mass., US) introduced the AccQ-Tag®ultra method. In this method, 6-aminoquinolyl-N-hydroxysuccinimidyl carbamate (AQC) is used as a reagent for the quantitative conversion of primary and secondary amino acids into the corresponding carbamide derivatives. In our quantitative UPLC/tandem MS based method, pre-column AccQ-Tag®ultra ultra derivatization circumvents ion suppression effects from co-eluting endogeneous dipeptides. LC-MS/MS was applied for monitoring diagnostic ions of the free amino acid derivatives, i.e. the protonated carbamide derivative and one daughter ion (m/z 171), that result from the loss of the amino acid from the corresponding carbamide derivative. By monitoring the above-mentioned MS/MS transition, free amino acids are selectively monitored, also in the presence of peptides from the hydrolysate.\nTo measure the free amino acids in the supernatants of the casein hydrolysates prepared according to Example 4, the following protocol for sample preparation and derivatization was used. • Dissolve 40-300 mg of protein hydrolysate in 50 ml 0.1 N HCl • Transfer 100 μl of this solution into a vial • Add 100 ul of internal standard (IS) solution (containing 1 mg of each of isotope-labelled amino acids per 50 ml) • Mix vigorously • Transfer 10 μl of this sample/IS solution into a test tube • Add 70 μl borate buffer (from the Waters AccQ-Tag ultra reagent package) and mix • Add 20 μl reagent solution (from the Waters AccQ-Tag ultra reagent package) and mix immediately • Transfer the derivative solution to an injection vial • Heat the vial at 55° C. for 10 minutes and mix • Inject 1 μl into the UPLC system.\nSubsequent UPLC-MS/MS analyses were performed on an Ultra high-Pressure Liquid Chromatograph (UPLC) combined with a Xevo TQ mass spectrometer from Waters under the following conditions.\nWe determined total di- and tripeptides by quantitative LC/MS method in which we took advantage of a pre-column derivatization and exact mass analysis using a LTQ orbitrap mass spectrometer. […]\nUsing a wide variety of dipeptide standards, first the deviation of the proton affinity (expressed in peak area) was determined before/after derivatization. A total of 20 different dipeptides, selected on the basis of their hydrophobicities, were used and after subsequent derivatization and LC/MS analysis the peak area per pMole dipeptide was calculated. […]", "key": {"[1]": {"conditions": "supernatant after 90 minutes, 0.25 mg/ml of each enzyme"}}}
{"substance": "Pepsin: gastric aspartic endoprotease (EC 3.4.23.1) from porcine stomach mucosa, Sigma", "values": [{"measurement": "Weight % of soluble casein present in the form of either free amino acids, di- or tri-peptides", "setting": "sum of Tables 3 and 4, 90 minutes", "value": 10.5, "unit": "Weight %"}, {"measurement": "Weight % of soluble casein present in the form of free amino acids", "setting": "[1]", "value": 0.94, "unit": "Weight %"}, {"measurement": "Weight % of soluble casein present in the form of: dipeptides", "setting": "[1]", "value": 1.0, "unit": "Weight %"}, {"measurement": "Weight % of soluble casein present in the form of: tripeptides", "setting": "[1]", "value": 8.6, "unit": "Weight %"}]}
